The structures appear in SMILES notation.

Chains of the proteins cited; added tags and fusions are not shown. Lines headed by an entry give the natural chain unless they say otherwise; changes in a name come on top.
UniProt P49841: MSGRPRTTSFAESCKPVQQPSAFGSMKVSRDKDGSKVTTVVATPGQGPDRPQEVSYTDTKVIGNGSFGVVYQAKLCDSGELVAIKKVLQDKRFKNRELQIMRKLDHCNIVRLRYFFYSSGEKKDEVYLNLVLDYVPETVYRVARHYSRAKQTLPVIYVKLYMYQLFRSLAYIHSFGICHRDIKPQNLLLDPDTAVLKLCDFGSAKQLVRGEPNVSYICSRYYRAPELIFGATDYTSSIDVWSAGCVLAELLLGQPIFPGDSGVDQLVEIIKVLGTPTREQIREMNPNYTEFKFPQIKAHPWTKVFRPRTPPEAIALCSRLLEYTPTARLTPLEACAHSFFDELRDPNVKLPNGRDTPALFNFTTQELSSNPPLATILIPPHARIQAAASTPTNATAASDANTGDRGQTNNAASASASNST

A word on the IC50: it is the point on the concentration scale where inhibition reaches its midpoint. Lower therefore signals higher potency.

The test has as its target Glycogen synthase kinase-3 beta (Homo sapiens, UniProt P49841). The test is described as follows: Inhibition of GSK3beta (unknown origin).

For `O=C1Nc2ccccc2/C1=C1/Nc2ccccc2/C1=N\O`, the IC50 amounted to 200 nM.

The record behind these values is ChEMBL document CHEMBL4020814, “Synthesis, Binding Mode, and Antihyperglycemic Activity of Potent and Selective (5-Imidazol-2-yl-4-phenylpyrimidin-2-yl)[2-(2-pyridylamino)ethyl]amine Inhibitors of Glycogen Synthase Kinase 3” (J Med Chem, 2017).
